Reference: PubChem BioAssay (NCI)
Values joined by “and” are separate entries in the source; they are usually repeats but may differ in a detail not shown here. Equal entries are not always repeated. The list shows a part of the results, in another mix than the full data.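 For each line, cells grew in 96-well plates with the test compound present at a single concentration for 48 hours.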 Some salts or complexes appear as unconnected parts, following the source record. Active and inactive are the calls of the source. How the source made its calls: active means growth percent below 10; inactive means the rest.

How the values were obtained:
Assay in all cases: NCI-60 one-dose screen, 48 h (100 = growth as untreated, 0 = no growth, -100 = all killed)
Details in all cases: 10 µM
[1] = test system: NCI/ADR-RES ovarian
[2] = test system: T-47D breast
[3] = test system: BT-549 breast
[4] = test system: MDA-MB-435 melanoma
[5] = test system: SW-620 colon
[6] = test system: MCF7 breast
[7] = test system: HCT-116 colon
[8] = test system: HCC-2998 colon
[9] = test system: KM12 colon

| SMILES | growth [1] | growth [2] | growth [3] | growth [4] | growth [5] | growth [6] | growth [7] | growth [8] | growth [9] |
| --- | --- | --- | --- | --- | --- | --- | --- | --- | --- |
| Nc1cccc(Cl)c1.O=[N+]([O-])c1cc([N+](=O)[O-])c(O)c([N+](=O)[O-])c1 | inactive: 101% | inactive: 91.8% | inactive: 97.5% | inactive: 108% | inactive: 107% | inactive: 91.9% | inactive: 98.5% | inactive: 104% | inactive: 98.8% |
| O=[N+]([O-])c1cccc([N+](=O)[O-])c1O | inactive: 110% | inactive: 101% |  | inactive: 111% | inactive: 95.2% | inactive: 96% | inactive: 106% | inactive: 121% | inactive: 106% |
| O=C(Cl)c1c([N+](=O)[O-])cc([N+](=O)[O-])cc1[N+](=O)[O-] | inactive: 76% | active: -0.253% |  | inactive: 79.1% | inactive: 26.3% | active: -56% | inactive: 63.9% | inactive: 31.2% | inactive: 60.4% |
| O=[N+]([O-])c1cc([N+](=O)[O-])c(O)c([N+](=O)[O-])c1.c1ccc(Cc2ccncc2)cc1 | inactive: 115% | inactive: 91% | inactive: 106% | inactive: 103% | inactive: 105% | inactive: 93% | inactive: 105% | inactive: 95.8% | inactive: 100% |
| CN/C(N)=N/[N+](=O)[O-] | inactive: 101% | inactive: 117% |  | inactive: 115% | inactive: 103% | inactive: 86% | inactive: 100% | inactive: 109% | inactive: 103% |
| CP(=S)(Cl)N(CCCl)CCCl (stereo not drawn) | inactive: 106% | inactive: 99.4% | inactive: 111% | inactive: 104% | inactive: 98.1% | inactive: 99.7% | inactive: 102% | inactive: 99.8% | inactive: 118% |
| O=[N+]([O-])N(CCN(CC(Br)([N+](=O)[O-])[N+](=O)[O-])[N+](=O)[O-])CC(Br)([N+](=O)[O-])[N+](=O)[O-] | inactive: 98.4% | inactive: 101% | inactive: 90.8% | inactive: 105% | inactive: 105% | inactive: 102% | inactive: 95.3% | inactive: 113% | inactive: 116% |
| O=[N+]([O-])OCC(O[N+](=O)[O-])C(CO[N+](=O)[O-])O[N+](=O)[O-] (stereo not drawn) | inactive: 110% | inactive: 108% | inactive: 110% | inactive: 116% |  | inactive: 107% | inactive: 104% | inactive: 101% | inactive: 103% |
| Clc1ccccc1SCCBr | inactive: 107% | inactive: 85% |  | inactive: 107% | inactive: 101% | inactive: 102% | inactive: 107% | inactive: 94.4% | inactive: 92.3% |
| O=[N+]([O-])c1cc([N+](=O)[O-])c(O)c([N+](=O)[O-])c1.c1ccc([I+]c2ccccc2)cc1 | inactive: 91.3% | inactive: 60% |  | inactive: 77.2% | inactive: 34.3% | inactive: 46.3% | inactive: 18.5% | inactive: 54.4% | inactive: 52.5% |
| CN(C)CCS | inactive: 99.1% and inactive: 109% | inactive: 100% and inactive: 96.5% | inactive: 106% and inactive: 89.8% | inactive: 100% | inactive: 104% | inactive: 91.5% and inactive: 101% | inactive: 106% and inactive: 108% | inactive: 97.2% and inactive: 107% | inactive: 112% and inactive: 104% |
| CC(C)N(CCCl)C(C)C | inactive: 101% | inactive: 109% | inactive: 102% | inactive: 117% | inactive: 108% | inactive: 103% | inactive: 108% | inactive: 104% | inactive: 114% |
| O=[N+]([O-])c1cc([N+](=O)[O-])c(NCCO)c([N+](=O)[O-])c1 | inactive: 90.1% | inactive: 102% |  | inactive: 69.4% | inactive: 69.8% | inactive: 71.5% | inactive: 73.7% | inactive: 119% | inactive: 92.9% |
| CCN(CC)CCOC(=O)C(O)(c1ccccc1)c1cc(C)cc(C)c1C (stereo not drawn) | inactive: 101% | inactive: 98.4% | inactive: 123% | inactive: 107% | inactive: 109% | inactive: 92.9% | inactive: 104% | inactive: 114% | inactive: 115% |
| NC(=NCCN/C(N)=N/[N+](=O)[O-])N[N+](=O)[O-] | inactive: 97.1% |  | inactive: 82.3% | inactive: 110% | inactive: 104% | inactive: 86.2% | inactive: 89% | inactive: 95.8% | inactive: 109% |
| CNc1ccccc1.O=[N+]([O-])c1cc([N+](=O)[O-])c(O)c([N+](=O)[O-])c1 | inactive: 110% | inactive: 105% | inactive: 116% | inactive: 99.5% | inactive: 99.4% | inactive: 96.3% | inactive: 105% | inactive: 107% | inactive: 107% |
| O=[N+]([O-])c1cc([N+](=O)[O-])c(Nc2nnnn2CCO)c([N+](=O)[O-])c1 | inactive: 102% | inactive: 106% |  | inactive: 103% | inactive: 117% | inactive: 94.9% | inactive: 105% | inactive: 109% | inactive: 114% |
| CC[N+](C)(CC)Cc1cc(Cc2ccccc2)ccc1OC(=O)N(C)C | inactive: 94.7% | inactive: 91.9% | inactive: 110% | inactive: 110% | inactive: 106% | inactive: 94.2% | inactive: 103% | inactive: 94.6% | inactive: 111% |
